# ChEMBL document CHEMBL2086369, “Design, synthesis, and pharmacological characterization of indol-3-ylacetamides, indol-3-yloxoacetamides, and indol-3-ylcarboxamides: potent and selective CB2 cannabinoid receptor inverse agonists” (J Med Chem, 2012)
# Amino acid sequences for entries named in this document (tags omitted).
# UniProt P21554, whole entry: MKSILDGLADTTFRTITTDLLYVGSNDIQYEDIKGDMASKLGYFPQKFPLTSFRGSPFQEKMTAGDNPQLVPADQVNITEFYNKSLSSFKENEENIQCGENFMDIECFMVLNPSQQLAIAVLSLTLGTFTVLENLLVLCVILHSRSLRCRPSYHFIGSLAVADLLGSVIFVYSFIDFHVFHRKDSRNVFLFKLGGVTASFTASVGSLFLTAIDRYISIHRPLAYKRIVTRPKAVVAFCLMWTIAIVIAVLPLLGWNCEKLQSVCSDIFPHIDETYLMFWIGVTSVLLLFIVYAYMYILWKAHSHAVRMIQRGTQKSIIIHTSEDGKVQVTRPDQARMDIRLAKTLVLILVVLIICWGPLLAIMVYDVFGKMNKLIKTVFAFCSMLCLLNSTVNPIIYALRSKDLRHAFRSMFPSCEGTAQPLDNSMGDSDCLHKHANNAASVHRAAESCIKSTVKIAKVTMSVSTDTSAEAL
# Target: Cannabinoid receptor 1 (Homo sapiens, UniProt P21554)
# Test: biochemical
# Format: cell-based, HEK293
smiles,measurement,value
Cc1ccc(Cn2nc(C(=O)N[C@@H]3C(C)(C)[C@@H]4CC[C@@]3(C)C4)cc2-c2ccc(Cl)c(C)c2)cc1 [SR-144528],Ki,> 2820 nM
